The values that follow come from patent US20240391959A1, “BICYCLIC PEPTIDE LIGANDS […] FOR TRANSFERRIN RECEPTOR 1 (TfR1)” (BicycleTx Limited, priority 2020, published 2024).

Amino acid sequences for entries named in this document (tags omitted). Residues count along the entry.
UniProt P02786, 89-760: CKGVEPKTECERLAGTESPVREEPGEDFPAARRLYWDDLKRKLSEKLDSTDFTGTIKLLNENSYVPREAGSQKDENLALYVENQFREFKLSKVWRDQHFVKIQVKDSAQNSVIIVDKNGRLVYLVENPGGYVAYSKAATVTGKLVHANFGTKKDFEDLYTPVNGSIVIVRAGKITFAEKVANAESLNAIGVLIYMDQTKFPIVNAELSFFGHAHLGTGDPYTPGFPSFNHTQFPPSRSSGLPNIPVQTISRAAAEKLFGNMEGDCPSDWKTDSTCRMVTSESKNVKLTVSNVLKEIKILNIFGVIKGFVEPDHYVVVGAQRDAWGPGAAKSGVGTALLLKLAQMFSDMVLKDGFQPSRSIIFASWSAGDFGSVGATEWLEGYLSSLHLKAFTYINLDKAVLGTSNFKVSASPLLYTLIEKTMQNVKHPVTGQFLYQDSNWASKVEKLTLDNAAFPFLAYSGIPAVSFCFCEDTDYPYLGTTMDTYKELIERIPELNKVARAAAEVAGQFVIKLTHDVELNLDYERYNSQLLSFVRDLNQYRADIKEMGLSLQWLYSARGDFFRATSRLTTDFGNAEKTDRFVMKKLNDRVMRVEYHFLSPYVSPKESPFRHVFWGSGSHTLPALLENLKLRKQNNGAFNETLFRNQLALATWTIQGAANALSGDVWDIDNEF

Read-outs that look alike come from different tables or passages of the source.

The target of assay [1] is T1, human TfR1 (Homo sapiens, UniProt P02786). Put plainly: TfR1 direct binding assay (fluorescence polarisation). Also noted: His6-tagged TfR1 (a.a. 89-760) (ACRO Biosystems, CD1-H5243 and TFR-C524a); His6; purchased R&D Systems or Acro Biosystems 2474-TR or CD1-H5243. The note with it: read-out: Geomean Kd (μM) Human TfR1; FP direct binding, fluorescein-labelled peptide. How it is done:
Affinity of the peptides of the invention for human or cynomolgus TfR1 (Kd) was determined using a fluorescence polarisation assay, in accordance with the following method. Peptides of the invention were labelled with a fluorescent tag (fluorescein) and diluted to 2.5 nM in 25 mM HEPES with 100 mM NaCl, 4 mM CaCl2 and 0.005% P20, pH 7.4. TfR1 protein (Human: R&D Systems, 2474-TR or Acro Biosystems, CD1-H5243; Cyno: Acro Biosystems, TFR-C524a) was titrated starting at 1-5 μM in the same assay buffer as the peptide to assay 1 nM peptide in a total volume of 25 μL in black walled and bottomed low bind low volume 384 well plates. The assay was typically set up by adding 5 μL assay buffer, 10 μL TfR1 protein then 10 μL fluorescent peptide. The concentrations of TfR1 protein were 1 in 2 serial dilutions to give 12 different concentrations starting at 1-5 μM. Measurements were conducted on a BMG PHERAstar FS equipped with an FP 485 520 520 optic module at 25° C. with 200 flashes per well and a positioning delay of 0.1 second. Each well was measured every 5 minutes for 60 minutes. The gain used for analysis was determined for each tracer at the end of the 60 minutes where there was no protein in the well. The mP were fit to a standard 1:1 binding model with a quadratic equation to generate a Kd value.
(In general: In fluorescence polarisation assays a small probe gives low polarisation when free and higher when bound to something large.)

For assay [2], the target named is T1, human TfR1. In kind it is binding. Also on record: His6-tagged TfR1 (a.a. 89-760) (ACRO Biosystems, CD1-H5243 and TFR-C524a); His6; purchased R&D Systems or Acro Biosystems 2474-TR or CD1-H5243.
The mark [3] stands for this setting: read-out: Human TfR1 Ki, competition with BCY15768, Table 6.
[4] abbreviates: competition with 1 nM BCY15768, 200 nM human TfR1, Table 5, read-out: Geomean Ki.
The mark [5] stands for this setting: competition with BCY15768, Table 6, read-out: Human TfR1 Ki.

As for (SEQ ID NO: 9)-[Sar6]-[K-FI] [BCY15934], at human TfR1 [1], the Kd amounted to 0.064 µM. Further, the Ki on human TfR1 [2] (setting [3]) is 63 nM.

As to “A-(SEQ ID NO: 2)-A-[Sar6]-[K-Fl] [BCY12650]”, at human TfR1 [1], the Kd is 0.862 µM. For “A-(SEQ ID NO: 3)-A-[Sar6]-[K-Fl] [BCY12651]”, the Kd on human TfR1 [1] turned out to be 0.971 µM.

Turning to “A-(SEQ ID NO: 4)-A-[Sar6]-[K-FI] [BCY14474]”, the Kd on human TfR1 [1] turned out to be 0.751 µM. Consider Ac-(SEQ ID NO: 7) [BCY15890], for which, at human TfR1 [2] (setting [4]), the Ki stood at 47 nM. “Ac-(SEQ ID NO: 9)-A-[Sar6]-[K-FI] [BCY15937]”: on human TfR1 [1], the Kd stood at 0.034 µM. Moreover, the Ki on human TfR1 [2] (setting [3]) is 34 nM. Regarding “Ac-(SEQ ID NO: 9)-EPW-[K(N3)] [BCY17873]”, the Ki at human TfR1 [2] (setting [5]) is 13 nM.

Take Ac-(SEQ ID NO: 9)-[K(N3)] [BCY17868]: on human TfR1 [2] (setting [5]), the Ki came out at 23 nM.

“Ac-(SEQ ID NO: 9)-[Sar6]-[K-FI] [BCY15938]”: the Kd at human TfR1 [1] worked out at 0.06 µM. Moreover, on human TfR1 [2] (setting [3]), the Ki stood at 60 nM.

Turning to Ac-(SEQ ID NO: 10) [BCY15892], the Ki on human TfR1 [2] (setting [4]) and on human TfR1 [2] (setting [5]) was 63 nM throughout. Turning to Ac-(SEQ ID NO: 11) [BCY15893], the Ki on human TfR1 [2] (setting [4]) and at human TfR1 [2] (setting [5]) was 44 nM in each case.

Regarding Ac-(SEQ ID NO: 12) [BCY15894], the Ki at human TfR1 [2] (setting [4]) and at human TfR1 [2] (setting [5]) was 392 nM in each case.

With Ac-(SEQ ID NO: 14)-[K(N3)] [BCY17875], the Ki at human TfR1 [2] (setting [5]) stood at 13 nM. Regarding Ac-(SEQ ID NO: 15) [BCY17989], the Ki at human TfR1 [2] (setting [4]) was 30 nM; on human TfR1 [2] (setting [5]), 24 nM. Consider Ac-(SEQ ID NO: 15)-[K(N3)] [BCY17877], for which the Ki at human TfR1 [2] (setting [5]) was determined as 29 nM. On the same count and under the same terms, the result for Ac-(SEQ ID NO: 44)-[K(N3)] [BCY17879] reads 32 nM. Ac-A-(SEQ ID NO: 9)-A [BCY15939]: the Ki on human TfR1 [2] (setting [4]) and on human TfR1 [2] (setting [5]) was 125 nM throughout. On to “Ac-NWN-(SEQ ID NO: 9)-[K(N3)] [BCY17871]”, for which the Ki at human TfR1 [2] (setting [5]) was 9 nM. As for CiSPDAHLGCiiISYCiii [BCY15935], the Ki at human TfR1 [2] (setting [4]) and on human TfR1 [2] (setting [5]) was 300 nM each time. Regarding NWN-(SEQ ID NO: 9) [BCY18029], the values for the Ki at human TfR1 [2] (setting [4]) and at human TfR1 [2] (setting [5]) were 8 nM and 6 nM, respectively.

NWN-(SEQ ID NO: 9)-[K(N3)] [BCY17870]: the Ki on human TfR1 [2] (setting [5]) was found to be 9 nM.

In the case of N[1Nal]N-(SEQ ID NO: 9) [BCY18030], the Ki at human TfR1 [2] (setting [4]) came to 5 nM; at human TfR1 [2] (setting [5]), 7 nM. As to N[NMeTrp]N-(SEQ ID NO: 9) [BCY18032], the figures for the Ki on human TfR1 [2] (setting [4]) and on human TfR1 [2] (setting [5]) were 105 nM and 77 nM, respectively. Taken in the same sequence, the figures for N[dW]N-(SEQ ID NO: 9) [BCY18031] were 20 nM and 17 nM. Take “[FI]G[Sar5]-A-(SEQ ID NO: 9)-A [BCY15940]”: the Kd at human TfR1 [1] is 0.054 µM. The Ki on human TfR1 [2] (setting [3]) was 54 nM.

The term Kd denotes the equilibrium constant for the complex coming apart. By Ki is commonly meant the equilibrium dissociation constant of an inhibitor or competing ligand from its target.
